Experimental data: patent EP1117420B1, “PHARMACEUTICAL COMPOSITIONS BASED ON ALPHA-CYCLODEXTRIN FOR THE ORAL ADMINISTRATION OF LH-RH ANALOGUES” (LABORATOIRE THERAMEX S.A., priority 1998, dated 2000)

Legend:
LH-RH receptors [1] = biological target: T1, LH-RH receptors (Rattus norvegicus, UniProt P30969); experiment: stimulation of LH secretion after oral gavage (plasma LH by radioimmunoassay); format: in vivo, Sprague-Dawley rats; set-up: from tissue; host or cells: pituitary of living adult male Sprague-Dawley rats (in vivo); settings: for total plasma LH (ng/ml) (m ± sem): 2 nmoles/rat by oral gavage, blood 2 hours after administration, male rats
T1 sequence (P30969 1-327): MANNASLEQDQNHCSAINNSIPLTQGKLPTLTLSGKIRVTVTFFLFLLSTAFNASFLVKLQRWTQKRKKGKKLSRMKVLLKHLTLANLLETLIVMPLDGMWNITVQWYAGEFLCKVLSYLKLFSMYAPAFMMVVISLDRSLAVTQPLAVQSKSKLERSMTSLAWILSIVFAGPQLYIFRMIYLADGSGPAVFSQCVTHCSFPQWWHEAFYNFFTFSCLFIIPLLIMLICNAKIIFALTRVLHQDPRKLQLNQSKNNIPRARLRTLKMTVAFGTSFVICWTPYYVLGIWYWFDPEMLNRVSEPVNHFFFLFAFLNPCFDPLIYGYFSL
Description: […] […] Total plasma testosterone (Diagnostic System Laboratories) and LH (Amersham Pharmacia Biotech) determinations were performed by radioimmunoassay. In screening 2-hour experiments, each group comprised between 6 and 8 rats; each time point of the kinetic study was studied on four animals.
Two hours after administration, plasma LH levels were measured on eight rats per dose group (Figure 7).
(§1) Then, the α-CD solution was added to fill the flask up to 10 ml to make a 2 nmol/ml solution of which 1ml was administered by oral gavage to each rat.

LH-RH receptors [2] = biological target: T1, LH-RH receptors; experiment: stimulation of testosterone secretion after oral gavage (plasma testosterone by radioimmunoassay); format: in vivo, Sprague-Dawley rats; set-up: from tissue; host or cells: pituitary of living adult male Sprague-Dawley rats (in vivo); settings: for total plasma testosterone (nmol/l) (m ± sem): 2 nmoles/rat by oral gavage, blood 2 hours after administration, male rats; for testosterone levels (ng/ml); (m ± sem) / enhancement of agonist activity on testosterone: 5 µg/kg p.o.; for testosterone levels (ng/ml); (m ± sem): 2 hours after administration
Description: For screening purposes, blood samples were drawn 2 hours after oral administration of a common dose of 2 nmoles/rat of LH-RH peptide agonists in an aqueous solution containing 10 or 100 mM of α-CD (Tables 1 and 2; Figures 1, 4 and 6). […] Total plasma testosterone (Diagnostic System Laboratories) and LH (Amersham Pharmacia Biotech) determinations were performed by radioimmunoassay. In screening 2-hour experiments, each group comprised between 6 and 8 rats; each time point of the kinetic study was studied on four animals.
All α-CD derivatives were purchased from Cyclolab (Budapest, Hungary).
as §1
After overnight magnetic stirring at room temperature, each solution was given to rats by oral gavage in a 4 ml/kg volume to administer the same dose of 5 µg/kg of example 2 without or with increasing concentrations of α-CD.

[3] = without α-CD (standard aqueous vehicle)

leuprorelin [reference compound]
total plasma LH (ng/ml) (m ± sem) (LH-RH receptors [1]; with α-CD (100 mM solution)): 12.3 ± 2.03 ng/mL | total plasma LH (ng/ml) (m ± sem) (LH-RH receptors [1]; without α-CD): 1.2 ± 0.14 ng/mL | total plasma testosterone (nmol/l) (m ± sem) (LH-RH receptors [2]; with α-CD (100 mM solution)): 70.7 ± 4.06 nmol/L | total plasma testosterone (nmol/l) (m ± sem) (LH-RH receptors [2]; [3]): 26.3 ± 5.77 nmol/L

[Npg^7]leuprorelin [Example 3]
plasma LH levels (LH-RH receptors [1]; example 3 alone, 5 µg/kg p.o., two hours after administration, Figure 7): inactive | plasma LH levels (LH-RH receptors [1]; example 3 alone, 10 and 20 µg/kg p.o., two hours after administration, Figure 7): threshold doses | plasma LH levels (LH-RH receptors [1]; example 3 given alone, 2.5, 5 and 10 µg/kg p.o., Figure 7): remained inactive | plasma LH levels (LH-RH receptors [1]; with 10% permethylated α-CD, 2.5, 5 and 10 µg/kg p.o., two hours, Figure 7): sharp dose-related stimulatory response | enhancement of LH-releasing activity (LH-RH receptors [1]; with 10% α-CD, 20 µg/kg p.o., compared with example 3 alone): over 5 fold | plasma LH levels (LH-RH receptors [1]; with 10% α-CD, 5 and 10 µg/kg p.o., two hours, compared with example 3 alone): slight but significant stimulations | total plasma LH (ng/ml) (m ± sem) (LH-RH receptors [1]; with α-CD (100 mM solution)): 10.9 ± 1.66 ng/mL | total plasma LH (ng/ml) (m ± sem) (LH-RH receptors [1]; without α-CD): 2.2 ± 0.58 ng/mL | testosterone levels (ng/ml); (m ± sem) (LH-RH receptors [2]; carboxymethylated α-CD (50%)): 6.9 ± 1.62 ng/mL | testosterone levels (ng/ml); (m ± sem) (LH-RH receptors [2]; cyclodextrin: none): 1.0 ± 0.17 3.4 ± 0.79 ng/ml | testosterone levels (ng/ml); (m ± sem) (LH-RH receptors [2]; methylated α-CD (30%)): 7.1 ± 1.59 ng/mL | testosterone levels (ng/ml); (m ± sem) (LH-RH receptors [2]; permethylated α-CD (15%)): 12.9 ± 1.10 ng/mL | testosterone levels (ng/ml); (m ± sem) (LH-RH receptors [2]; phosphated α-CD (30%)): 7.4 ± 2.00 ng/mL | testosterone levels (ng/ml); (m ± sem) (LH-RH receptors [2]; α-CD (10%)): 10.0 ± 1.22 ng/mL | oral activity (stimulation of testosterone secretion) (LH-RH receptors [2]; combined with 10 mM α-CD (0.972%), 2 nmoles/rat, Figure 1): not significantly improved | enhancement of agonist activity on testosterone (LH-RH receptors [2]; native α-CD versus no cyclodextrin): 2.9 fold | enhancement of agonist activity on testosterone (LH-RH receptors [2]; permethylated α-CD versus no cyclodextrin): 3.8 fold | total plasma testosterone (nmol/l) (m ± sem) (LH-RH receptors [2]; with α-CD (100 mM solution)): 69.7 ± 3.6 nmol/L | total plasma testosterone (nmol/l) (m ± sem) (LH-RH receptors [2]; [3]): 39.7 ± 8.11 nmol/L
